This assay deals with T1, MKLP-2 (RabK6) (Homo sapiens, UniProt O95235, S2A).
T1 construct: Expression clones for MKLP-21-519 (coding for residues 1 to 519) were obtained as follows; His-tag; made in house; host or cells: E. coli BL21(DE3)
T1 sequence (O95235 1-519 S2A limits assumed): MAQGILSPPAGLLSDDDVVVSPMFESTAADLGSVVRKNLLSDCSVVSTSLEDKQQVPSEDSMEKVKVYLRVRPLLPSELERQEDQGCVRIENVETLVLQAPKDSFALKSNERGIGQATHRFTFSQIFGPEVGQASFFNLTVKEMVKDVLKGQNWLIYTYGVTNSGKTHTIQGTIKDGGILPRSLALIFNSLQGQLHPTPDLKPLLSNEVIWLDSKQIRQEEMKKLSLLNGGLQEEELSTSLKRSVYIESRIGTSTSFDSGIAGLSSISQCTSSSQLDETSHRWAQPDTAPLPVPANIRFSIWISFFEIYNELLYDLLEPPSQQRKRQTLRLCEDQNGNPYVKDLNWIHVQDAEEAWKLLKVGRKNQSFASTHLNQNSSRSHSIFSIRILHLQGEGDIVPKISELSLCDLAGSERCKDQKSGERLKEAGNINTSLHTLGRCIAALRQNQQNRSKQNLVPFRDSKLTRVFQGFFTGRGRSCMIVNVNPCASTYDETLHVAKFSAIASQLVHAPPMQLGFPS
Put plainly: biochemical. As to the method:
All experiments were performed at room temperature using a 96-well Sunrise photometer (Tecan, Maennedorf, Switzerland) at a final volume of 100 μl per well.
Steady-state ATPase rates were measured using the pyruvate kinase/lactate dehydrogenase-linked assay in buffer A25A (25 mM potassium ACES, pH 6.9, 2 mM MgAc2, 2 mM Na-EGTA, 0.1 mM Na-EDTA, 1 mM β-mercaptoethanol) supplemented with 1 mM MgATP; 2 mM PEP; 0.25 mM NADH; 3-10 μg/ml pyruvate kinase; 3 μg/ml lactate dehydrogenase and 8 μM taxol.
The data were analyzed using Kaleidagraph 3.0 (Synergy Software, Reading, Pa.) and Microsoft Excel to obtain the kinetic variables.
When necessary, the inhibitor concentrations were adapted depending on the initial IC50 value. Experiments were performed in triplicate and averaged data points are shown with error bars±SD.
On to `N#C/C(=C\c1cccnc1)c1c[nH]c2ccc(Br)cc12` [Example 37, (Z)-2-(5-bromo-1H-indol-3-yl)-3-pyridin-3-yl-acrylonitrile], for which the IC50 was in the range of 10 to 20 µM.

Regarding `N#C/C(=C\c1cccnc1)c1c[nH]c2ccc(N)cc12` [Example 40, (Z)-2-(5-amino-1H-indol-3-yl)-3-pyridin-3-yl-acrylonitrile], the half-maximal inhibitory concentration (IC50) was < 5 µM. To `C(=C\c1c[nH]c2ccccc12)/c1cccnc1` [Example 57, (E)-3-(2-pyridin-3-yl-vinyl)-1H-indole] belongs 5 to 10 µM.

The term IC50 denotes the concentration that gives 50% inhibition.

The values above are taken from patent publication US9212138B2, “Use of derivatives of indoles for the treatment of cancer” (CENTRE NATIONAL DE LA RECHERCHE SCIENTIFIQUE, priority 2009, dated 2015).
